Values of other authors, collected in US20040006070A1, “Intraspinal continuous infusion of midazolam hydrochloride for the treatment of pain” (priority 2002, published 2004).

Conditions: cited from earlier work

In the case of `CN1CC[C@]23c4c5ccc(O)c4O[C@H]2C(=O)CC[C@H]3[C@H]1C5` [Hydromorphone], the “potency of intrathecal infusion relative to intrathecal morphine sulfate” value (intrathecal infusion) is listed as “approximately 6 times”, the “potency of intrathecal infusion relative to intravenous infusion” value (intrathecal vs intravenous infusion) is listed as “approximately 20 times” and the “approximate equipotent dose, IT” value (route IT) is listed as 1.7. The “approximate equipotent dose, IV” value (route IV) was 33 and the “approximate equipotent dose, PO” value (route PO) was 100.
